In patent US20240139148A1, “COMPOSITIONS AND METHODS FOR TREATING NON-TUBERCULOUS MYCOBACTERIAL INFECTIONS” (priority 2021, published 2024):

Test system: DosRS regulon
Assay: RNA-seq transcriptional profiling under microaerophilic conditions, WT strain
Settings: 20 μM

Structure (SMILES)	genes repressed that are also downregulated in the dosRS KO
C[C@@H]1CC[C@H]2[C@@H](C)C(=O)O[C@@H]3O[C@@]4(C)CC[C@@H]1[C@]32OO4 [ART, artemisinin]	repressed the expression of half of the genes
c1cc([C@H]2CC[C@]3(CC2)OO[C@]2(O3)C3CC4CC(C3)CC2C4)ccc1OCCN1CCOCC1 [OZ439, artefenomel]	inhibiting five common genes
